Reference: US11578372B2, “NTRK1 fusion molecules and uses thereof” (FOUNDATION MEDICINE, INC., priority 2012, dated 2023)
Entries after “also recorded” stand apart in the source; their conditions may differ.

What was measured:
[1] = test system: Ba/F3 cells expressing empty vector; experiment: MTS proliferation assay of Ba/F3 cells expressing empty vector in the presence of IL-3; assay type: cell-based, murine; settings: supplemented with IL-3
KM12 cells [2] = experiment: MTS proliferation assay of KM12 cells; assay type: cell-based
[3] = test system: lung adenocarcinoma harboring MPRIP-NTRK1; settings: crizotinib 250 mg twice daily
[4] = test system: Ba/F3 cells expressing MPRIP-NTRK1 (RIP-TRKA); experiment: MTS proliferation assay of Ba/F3 cells expressing NTRK1 fusions; assay type: cell-based, murine; settings: Ba/F3 cells expressing NTRK1 gene fusions, without IL-3
KM12 cells [5] = experiment: Apoptosis in KM12 cells (YO-PRO/PI flow cytometry); assay type: cell-based; settings: 24 h

**Q.** What does the source list for C[C@@H](Oc1cc(-c2cnn(C3CCNCC3)c2)cnc1N)c1c(Cl)ccc(F)c1Cl [crizotinib]?
**A.** sensitivity of Ba/F3 cells expressing empty vector [1]: intrinsic sensitivity; proliferation of KM12 cells (KM12 cells [2]): inhibited; also recorded: less so; time on treatment to clinical progression [3]: ~3 months; serum levels of CA125 ([3]; first evaluation): decrease; inhibition of proliferation [4]: leads to inhibition; also recorded: less potent inhibitor; apoptosis (KM12 cells [5]): induce apoptosis
